Legend:
Format in all cases: physicochemical
ISIS 2302 [1] = experiment: Desulfurization in bi-phasic cream formulation with oil-soluble antioxidants, 40° C. for 2 days; conditions: 40° C. 2 days; for Full PS content (%): 0.03% ISIS 2302, 0 mg gives 83.9
Protocol: A cream formulation was prepared containing 5.0 g BRIJ 58 (polyoxyethylene[20]cetyl ether), 0.03% ISIS 2302 and different concentrations of phenolic antioxidants.

ISIS 2302 [2] = experiment: Desulfurization in bi-phasic cream formulation with water-soluble and oil-soluble antioxidants, 40° C. for 6 days; conditions: additive 4.7 mg, 0.03% ISIS 2302, 40° C. 6 days, no additive 84.7
Protocol: The cream was heated at 40° C. for 6 days and the oligonucleotide was isolated by ethanol precipitation and analyzed for full PS content by SAX chromatography.

[3] = tested on: phosphorothioate oligonucleotide (ISIS-2302); experiment: Desulfurization of phosphorothioate oligonucleotide in mono-phasic system with oil-soluble antioxidants (SAX chromatography); conditions: 5 mg additive; 0.5 g PEG-40-monostearate, 1.5 ml phosphate buffer pH 7.0, 1.5 mg ISIS-2302; 65° C. 20 hours; no antioxidants 51.0
Protocol: Polyethyleneglycol-40-monostearate (0.5 g), a water-soluble excipient which forms peroxides in the absence of antioxidants, was heated at 65° C. for 20 hours with 1.5 ml phosphate buffer, pH 7.0 and 1.5 mg phosphorothioate oligonucleotide (ISIS-2302) in the absence or presence of various oil-soluble antioxidants. Oligonucleotides were isolated by ethanol precipitation and phosphorothioate content was determined by strong anion exchange (SAX) chromatography.

2 + 3 t-butyl-4-methoxyphenol [BHA]
Full PS content (%) (ISIS 2302 [1]; 5 mg antioxidant in 100 g cream): 80.7%
Full PS content (%) (ISIS 2302 [1]; 10 mg antioxidant in 100 g cream): 86.9%
Full PS content (%) (ISIS 2302 [1]; 25 mg antioxidant in 100 g cream): 81.1%
Full PS content (%) (ISIS 2302 [1]; 50 mg antioxidant in 100 g cream): 77.7%
Full PS content (%) (ISIS 2302 [1]; 75 mg antioxidant in 100 g cream): 77.7%
Full PS content (%) (ISIS 2302 [1]; 100 mg antioxidant in 100 g cream): 74.6%
Protection of phosphorothioate oligonucleotides against desulfurization (in words) (ISIS 2302 [1]; biphasic cream): do not provide protection
Full PS content (%) (ISIS 2302 [2]): 80.9%
Full PS content (area-% SAX) [3]: 71.5 area-% SAX
